Experimental data reported in patent US8589175B2, “Optimization and individualization of medication selection and dosing” (Children's Hospital Medical Center, priority 2005, dated 2013).
Like-named read-outs stand apart in the source and are kept apart here.

Assays:
CYP2C19 = test: dosing recommendation per CYP2C19 metabolizer subgroup as percentage of usual population dose (Equations 4-6)
Description: Assuming the goal is to maintain the same AUC for all three subpopulations of patients, the following subpopulation dosing relationships hold: DPM=DEM*(AUCEM/AUCPM) OR DPM=DEM*R if R=(AUCEM/AUCPM) (Equation 2) DIM=DEM*(AUCEM/AUCIM) OR DIM=DEM*S if S=(AUCEM/AUCIM) (Equation 3)
By substituting equations 2 and 3 into equation 1, and then rearranging the equation to solve for the percent dose adjustment needed for each subgroup relative to the population dose: DEM(%)=100/(fEM+fIM*S+fPM*R) (Equation 4) DPM(%)=R*DEM (Equation 5) DIM(%)=S*DEM (Equation 6) Equations 4, 5, and 6 show how the dosing for the more homogeneous subgroups is determined and how the dosing results are expressed as a fraction of the clinician's usual heterogeneous whole group dosages. Determining “Minimal Dose Adjustment Units”
Example: The approach in the previous section leads to individualized initial drug dose recommendations for each of the 3 subgroups (extensive, poor and intermediate metabolizers). Each subgroup represents a specific number of functional alleles for the specific DME (extensive metabolizers have 2 functional, intermediate metabolizers have 1 functional and poor metabolizers have 0 functional). The resultant dosing recommendations are expressed as percentages of the clinician's usual starting dose. It is possible to investigate the effect of increasing numbers of non-functional alleles using these new dosing recommendations. For example, if DRX % is the dosing recommendation for subgroup X expressed as a percentage of the clinician's usual starting dose then the following are true: Effect of […] 1 non-functional allele=(DREM %−DRIM %)/DREM % Effect of 2 non-functional allele=(DREM %−DRPM %)/DREM % Below is a spreadsheet (Table 3) that examines this for CYP2D6, CYP2C19 and CYP2C9. […] 2C9 has 2 MDA units per non-functional allele.

| 1 al (effect of 1 non-functional allele) (CYP2C19; CYP2C19) | 2 al (effect of 2 non-functional alleles) (CYP2C19; CYP2C19) | 2 al/1 al (CYP2C19; CYP2C19, ratio of the two effects) | IM (%) dosing recommendation (CYP2C19; CYP2C19 intermediate metabolizers, percent of usual dose) | PM (%) dosing recommendation (CYP2C19; CYP2C19 poor metabolizers, percent of usual dose) | 1 al (effect of 1 non-functional allele) (CYP2D6; CYP2D6, (DREM%-DRIM%)/DREM%) | 2 al (effect of 2 non-functional alleles) (CYP2D6; CYP2D6, (DREM%-DRPM%)/DREM%) | 2 al/1 al (CYP2D6; CYP2D6, ratio of the two effects) | EM (%) dosing recommendation (CYP2D6; CYP2D6 extensive metabolizers, percent of usual dose) | IM (%) dosing recommendation (CYP2D6; CYP2D6 intermediate metabolizers, percent of usual dose) | PM (%) dosing recommendation (CYP2D6; CYP2D6 poor metabolizers, percent of usual dose) | UM (%) dosing recommendation (CYP2D6; CYP2D6 ultrarapid metabolizers, percent of usual dose) | SMILES | 1 al (effect of 1 non-functional allele) (CYP2D6; human) | 2 al (effect of 2 non-functional alleles) (CYP2D6; human) | 2 al/1 al (CYP2D6; human) | EM (%) dosing recommendation (CYP2D6; human) | IM (%) dosing recommendation (CYP2D6; human) | PM (%) dosing recommendation (CYP2D6; human) | UM (%) dosing recommendation (CYP2D6; human) |
| --- | --- | --- | --- | --- | --- | --- | --- | --- | --- | --- | --- | --- | --- | --- | --- | --- | --- | --- | --- |
| 0.23 | 0.46 | 2.00 | 83% | 58% | 0.40 | 0.79 | 1.98 | 131% | 79% | 28% | 182% | CN(C)CCCN1c2ccccc2CCc2ccccc21 [imipramine] | – | – | – | – | – | – | – |
| – | – | – | – | – | – | – | – | – | – | – | – | Cc1cc2c(s1)Nc1ccccc1N=C2N1CCN(C)CC1 [olanzapine] | 0.14 | 0.50 | 3.59 | 122% | 105% | 61% | 139% |
| – | – | – | – | – | – | – | – | – | – | – | – | Cc1nc2n(c(=O)c1CCN1CCC(c3noc4cc(F)ccc34)CC1)CCCC2 [risperidone] | – | 0.18 | 1.90 | 106% | 96% | 87% | 116% |
